This passage reports Change in amplitude response results from ChEMBL document CHEMBL1123302, “Antagonists of substance P. Further modifications of substance P antagonists obtained by replacing either positions 7, 9 or 7, 8 and 11 of SP with D-amino acid residues” (J Med Chem, 1986).

SMILES strings stand for the structures.

The subject of test [1] is muscarinic acetylcholine receptor (Rattus norvegicus). Briefly: Antagonistic activity against Carbachol receptor in rat spinal cord at concentration of 5.0 uM.
For test [2] the test system is unchanged. Briefly: Antagonistic activity against Carbachol receptor in rat spinal cord at concentration of 1.0 uM.
Test [3] shares this test system. Kind of test: Antagonistic activity against Carbachol receptor in rat spinal cord at concentration of 50 uM.

For `COC(=O)[C@@H](CCSC)NC(=O)[C@@H](CC(C)C)SCCNC(=O)[C@@H](Cc1ccccc1)NC(=O)[C@H](Cc1ccccc1)NC(=O)[C@H](CCC(N)=O)NC(=O)[C@H](CCC(N)=O)NC(=O)[C@H]1CCCN1C(=O)[C@H](CCCCNC(=O)OCc1ccccc1)NC(=O)[C@H]1CCCN1C(=O)[C@H](CCCN=C(N)N)NC(=O)OCc1ccccc1`, the Change in amplitude response in test [1] was -46%; in test [2], -33%.

On to `COC(=O)[C@@H](CCSC)NC(=O)[C@H](CC(C)C)SCCNC(=O)[C@@H](Cc1ccccc1)NC(=O)[C@H](Cc1ccccc1)NC(=O)[C@H](CCC(N)=O)NC(=O)[C@H](CCC(N)=O)NC(=O)[C@H]1CCCN1C(=O)[C@H](CCCCNC(=O)OCc1ccccc1)NC(=O)[C@H]1CCCN1C(=O)[C@H](CCCN=C(N)N)NC(=O)OCc1ccccc1`, for which the Change in amplitude response in test [3] was -50%.
